# Hits are enriched below; roughly 16% of the tested compounds scored in any of these assays.
# TDP1 block – inhibitors of human tyrosyl-DNA phosphodiesterase TDP1. Q9NUW8. recombinant TDP1, AlphaScreen DNA substrate cleavage. Potency, µM (highest dose often 130 µM), for the others: top-dose activity change, negative = inhibition, actives largely listed as inhibitors. actives 0.28% (n = 350,000). AID 485290; note: potency is the fitted concentration of half-maximal effect; % is set by controls: 0 for no effect and ±100 for the full control effect; nearly all actives have a fitted effect of over 40% in size
#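 Recombinant human Tdp1 (E. coli-expressed, 1 nM final) preincubated with compounds 15 min at room temperature, then 5'-biotin/3'-phosphotyrosine-FITC DNA substrate (15 nM final) added for 5 min. AlphaScreen beads (10 ug/ml final) added 10 min; cleavage lowers signal.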
# uPA generation – blocks generation of uPA at the cell surface | cell surface uPA generation assay, qHTS | Potency, µM (series often up to 38.3 µM), inactives show top-dose activity change, negative = inhibition, actives largely listed as inhibitors | actives 0.31% (n = 330,000) | AID 540303; active = well fitted inhibition curve with a large enough effect; inconclusive = small, poorly fitted or top-dose-only effect; inactive = no such curve, though single readings can be large or run the other way; tested in mouse RAW 264.7 cells; note: potency is the fitted concentration of half-maximal effect; % is set by controls: 0 for no effect and ±100 for the full control effect; nearly all actives have a fitted effect of over 55% in size
# DT40 TDP1 CPT – DT40-hTDP1 cell growth loss with CPT. chicken DT40 Tdp1-/-;hTDP1 cells + 20 nM CPT, ATP luminescence, 48 h. Potency, µM (highest dose often 46.2 µM), inactives show at the top dose activity change, negative = growth inhibition, most hits filed as inhibitors. actives 12% (n = 420,000); note: potency is the fitted concentration of half-maximal effect; % is set by controls: 0 for no effect and ±100 for the full control effect; nearly all actives have a fitted effect of over 55% in size
#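 Chicken DT40 Tdp1-/- cells complemented with human TDP1, 400 cells/well, exposed to compounds plus 20 nM camptothecin for at least 48 h at 37 C; viability read as ATP content by CellTiter-Glo luminescence.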
# miR-21 FLuc – miR-21 reporter, rising signal. HeLa miR-21 FLuc reporter, luciferase, 48 h. Potency, µM (titrated, usually from 38.3 µM), without a hit: at the top dose reporter change, positive = more light. 340,000 tested, under 10 active. AID 2288; active = well fitted rising curve with a large enough effect; inconclusive = small, poorly fitted or top-dose-only effect; inactive = no such curve, though single readings can be large or run the other way;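 also: % of control where 0% means no effect; miR-21 action dims this reporter so a rising signal means less miR-21 action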
#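 Using DMEM plus 10% FBS, HeLa miR-21-FLuc cells are incubated with test compounds (final up to about 40uM) for 48 hours; firefly luciferase signal is then imaged following reagent-mediated lysis.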
# TDP1 cell noCPT – qHTS for Inhibitors of human tyrosyl-DNA phosphodiesterase 1 (TDP1): qHTS in cells in absence of CPT. DT40 Tdp1-/- hTDP1 cells, no CPT, ATP luminescence, 48 h. AID 686978, 2013. Potency, µM (series often up to 46.2 µM), for inactives: at the top dose activity change, negative = growth inhibition, hits mostly inhibitors. actives 15% (n = 420,000); note: potency is the fitted concentration of half-maximal effect; % is set by controls: 0 for no effect and ±100 for the full control effect; nearly all actives have a fitted effect of over 55% in size
#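 A cellular qHTS used chicken DT40 cells lacking endogenous Tdp1 but carrying stably transfected human TDP1. Compounds were applied without camptothecin, and cell growth kinetics were judged by ATP-dependent luminescence after ≥48 hr.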
# * = called active by the depositor; ? = inconclusive; · = no result given; [ ] = another dose, or the depositor's remark. Unless noted, calls come from the whole dose curve; as a rule, active = well fitted curve in the direction sought with a large enough effect; inconclusive = small, poorly fitted or top-dose-only effect, or another doubt; inactive = no such curve, though single readings can be large; an effect the other way counts as inactive or inconclusive.
1. COC(=O)[C@@]1(Cc2ccccc2)[C@H]2C(=O)N(Cc3ccccc3)C(=O)[C@H]2[C@H]2CN=C(SCC(=O)c3ccccc3)N21
2. COC(=O)[C@@]1(Cc2ccccc2)[C@H]2C(=O)N(Cc3ccccc3)C(=O)[C@H]2[C@H]2CN=C(SCc3ccc(Cl)cc3)N21
3. C/C(=N\NC(=O)CC(C)C)c1ccc(N2CCCCC2)cc1
4. Cc1ccc(S(=O)(=O)c2[nH]c(-c3ccccc3)nc2SCC(=O)O)cc1
5. CC(=O)Sc1nc(-c2ccccc2)[nH]c1S(=O)(=O)c1ccc(C)cc1
entry no.,1,2,3,4,5
TDP1 block,2%[56.1 µM],0%[56.1 µM],4%,-1%,7%
uPA generation,?,-10%,-1%,·,3%
DT40 TDP1 CPT,?,?,-17%,-4%,18µM*
miR-21 FLuc,·,·,-31%,1%,0%
TDP1 cell noCPT,18µM*,?,-15%,-9%,21µM*

# Molecules above containing nitrogen in an aromatic ring (two):
4. Cc1ccc(S(=O)(=O)c2[nH]c(-c3ccccc3)nc2SCC(=O)O)cc1
5. CC(=O)Sc1nc(-c2ccccc2)[nH]c1S(=O)(=O)c1ccc(C)cc1
entry no.,4,5
TDP1 block,-1%,7%
uPA generation,·,3%
DT40 TDP1 CPT,-4%,18µM*
miR-21 FLuc,1%,0%
TDP1 cell noCPT,-9%,21µM*

# Continuation:
6. CCOC(=O)/C(C#N)=C1/C(=O)N(Cc2ccccc2)c2ccccc21
7. COc1ccc(CN2CCC(n3nccc3NC(=O)C3CC3)CC2)c(OC)c1OC
8. CC1CN(CC(=O)NCc2ccc(Cl)cc2)CC(C)O1 (configuration not stated)
9. COC(=O)[C@@H](c1ccccc1)N(C)S(=O)(=O)c1cccc(S(=O)(=O)N(C)[C@@H](C(=O)OC)c2ccccc2)c1
10. O=C(O)CC(NC(=O)C12CC3CC(CC(C3)C1)C2)c1ccc(F)cc1 (configuration not stated)
entry no.,6,7,8,9,10
TDP1 block,0%,0%,3%,·,·
uPA generation,-6%,-1%,-6%,7%,-1%
DT40 TDP1 CPT,7.3µM*,7%,-13%,5.8µM*,-12%
miR-21 FLuc,1%,1%,1%,12%,0%
TDP1 cell noCPT,5.2µM*,13%,-10%,3.7µM*,14%

11. NC(CC(=O)NC(c1ccccc1)(c1ccccc1)c1ccccc1)C(=O)O (configuration not stated)
12. NC(CSC(c1ccccc1)(c1ccccc1)c1ccccc1)C(=O)O (configuration not stated)
13. COc1cccc(CN(C)C(=O)Cc2c[nH]c3ccccc23)c1OC
14. COc1cccc(CN(C)C(=O)CSCC(=O)Nc2ccc(C)cc2)c1OC
15. COc1cc(/C=N/NC(=Nc2ccc(C)cc2)c2nc3ccccc3s2)ccc1O
entry no.,11,12,13,14,15
TDP1 block,5%,·,·,0%,8%
uPA generation,1%,-9%,-27%,0%,·
DT40 TDP1 CPT,16%,5.8µM*,?,?,14µM*
miR-21 FLuc,0%,·,-14%,·,-26%
TDP1 cell noCPT,0%,5.2µM*,16µM*,12µM*,16µM*

16. COc1cc(C=C(c2nc3ccccc3s2)c2nc3ccccc3s2)cc(OC)c1O
17. Cc1ccc(C(C)NC(=S)NCc2ccc(F)cc2)cc1C (configuration not stated)
18. CCn1cnc2cc(NC(=O)c3ccco3)ccc21
19. CC(=O)Nc1ccc(S(=O)(=O)NCC2CCC(C(=O)NCCC(C)C)CC2)cc1 (configuration not stated)
20. Cc1ccc(N2CCN(C(=O)NCc3noc4ccccc34)CC2C)cc1 (configuration not stated)
entry no.,16,17,18,19,20
TDP1 block,8%,0%[56.1 µM],0%,4%,5%
uPA generation,-2%,5%,-10%,4%,·
DT40 TDP1 CPT,23µM*,?,-12%,-15%,21µM*
miR-21 FLuc,-9%,1%,-29%,1%,-4%
TDP1 cell noCPT,?,?,-13%,-29%,?

21. Cc1cccc(N2CCN(C(=O)NCc3noc4ccccc34)CC2)c1C
22. COC(=O)c1scc(-c2ccc(C)cc2)c1S(=O)(=O)Nc1ccc(NC(C)=O)cc1
23. COC(=O)c1scc(-c2ccc(C)cc2)c1S(=O)(=O)Nc1ccc(OC(F)(F)F)cc1
24. COC(=O)c1scc(-c2ccc(C)cc2)c1S(=O)(=O)Nc1ccc(N(C)C)cc1
25. Cc1cc(SCc2ccc(C(F)(F)F)cc2)nc(=O)[nH]1
entry no.,21,22,23,24,25
TDP1 block,5%,7%,5%,12%,1%
uPA generation,·,·,·,·,1%
DT40 TDP1 CPT,?,18µM*,-7%,16µM*,-20%
miR-21 FLuc,-29%,24%,-4%,0%,-17%
TDP1 cell noCPT,?,?,-9%,15µM*,7%

26. CC(C)CN(CC(C)C)c1ccc(/C=C/c2nc3ccccc3s2)cc1
27. Nc1ccc(/C=C/c2nc3ccccc3s2)cc1
28. CCN(CC)c1ccc(/C=C/c2nc3ccccc3s2)cc1
29. CC(=O)Nc1ccc(/C=C/c2nc3ccccc3s2)cc1
30. CCOc1ccc(NC(C)C(=O)N/N=C/c2cccs2)cc1 (configuration not stated)
entry no.,26,27,28,29,30
TDP1 block,·,·,8%,·,5%
uPA generation,·,·,·,·,2%
DT40 TDP1 CPT,5µM*,11µM*,·,?,-2%
miR-21 FLuc,·,·,-28%,·,-21%
TDP1 cell noCPT,3.5µM*,13µM*,·,11µM*,-10%

31. CC1CCN(C(=O)CSc2nncn2-c2ccccn2)CC1
32. Cc1cc(C(=O)Cn2cc(C(F)(F)F)ccc2=O)c(C)n1CC1CCCO1 (configuration not stated)
33. COc1ccc(Cn2ccnc2SCC(=O)Nc2ccccc2OC)cc1
34. C=C[C@H](C)[C@](C)(O)c1ccccc1
35. CCC(=O)Nc1nc2nc(-c3ccccc3)cc(=O)n2[nH]1
entry no.,31,32,33,34,35
TDP1 block,2%,4%,8%,7%,3%
uPA generation,0%,11%,8%,·,0%
DT40 TDP1 CPT,-20%,-9%,?,·,6%
miR-21 FLuc,-8%,·,-9%,·,0%
TDP1 cell noCPT,-1%,-9%,?,·,5%

36. Clc1nc(CN2CCCCC2)nc2sc3c(c12)CCC3
37. c1ccc2c(c1)CCN(c1nc(CN3CCOCC3)nc3sc4c(c13)CCCC4)C2
38. Cc1ccccc1OCC(=O)OCC(=O)NCCNC(=O)COC(=O)COc1ccccc1C
39. C=CCN1C=C2C(=O)C(C)(OC(=O)c3cnc4ccccc4n3)C(=O)C=C2C=C1/C=C/COC (configuration not stated)
40. COC/C=C/C1=CC2=CC(=O)C(C)(OC(=O)c3cnc4ccccc4n3)C(=O)C2=CN1CCOC (configuration not stated)
entry no.,36,37,38,39,40
TDP1 block,3%,11%,·,1%[12.3 µM],7%[12.3 µM]
uPA generation,·,1%,5%,-23%,-9%
DT40 TDP1 CPT,?,23µM*,-1%,?,?
miR-21 FLuc,1%,1%,·,·,·
TDP1 cell noCPT,18µM*,16µM*,0%,16µM*,?

# Three compounds from above, arranged by number of heavy atoms, rising:
5. CC(=O)Sc1nc(-c2ccccc2)[nH]c1S(=O)(=O)c1ccc(C)cc1
33. COc1ccc(Cn2ccnc2SCC(=O)Nc2ccccc2OC)cc1
1. COC(=O)[C@@]1(Cc2ccccc2)[C@H]2C(=O)N(Cc3ccccc3)C(=O)[C@H]2[C@H]2CN=C(SCC(=O)c3ccccc3)N21
entry no.,5,33,1
TDP1 block,7%,8%,2%[56.1 µM]
uPA generation,3%,8%,?
DT40 TDP1 CPT,18µM*,?,?
miR-21 FLuc,0%,-9%,·
TDP1 cell noCPT,21µM*,?,18µM*

# Remaining list, next part
41. CS(=O)(=O)N(CCc1ccccc1)CC(=O)NCc1ccncc1
42. COC1CCCN(Cc2nc(Cc3ccccc3F)no2)C1 (configuration not stated)
43. O=CN1CCCN(Cc2nc(Cc3ccccc3F)no2)CC1
44. Cc1ccc(C2(c3noc(CN4CCC(c5ccncc5)CC4)n3)CCCC2)cc1
45. Fc1ccccc1Cc1noc(CN2CCN(C/C=C/c3ccccc3)CC2)n1
46. Fc1ccccc1Cc1noc(CN2CCC(OCc3cccnc3)CC2)n1
entry no.,41,42,43,44,45,46
TDP1 block,5%,-10%,3%,1%,·,0%
uPA generation,-5%,0%,-5%,-4%,-6%,2%
DT40 TDP1 CPT,-6%,7%,1%,13µM*,18µM*,?
miR-21 FLuc,7%,-12%,-5%,21%,0%,-41%
TDP1 cell noCPT,5%,2%,-2%,18µM*,18µM*,23µM*

# Assay outcomes from PubChem.
